# Apparent affinities of Ab-14 variants for a coronavirus HR2 peptide

Reference: Li et al. 2023, doi:10.1038/s41467-023-39022-2. File: FLAb, binding data.

Antigen: PDVDLGDISGINAS, a 14-residue peptide of the SARS-CoV-2 spike HR2 region.

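The starting antibody came from a phage panning campaign against this peptide. These sequences belong to a second round, designed from the earlier measurements on random variants of the parent. Group labels follow the data file (Ctrl: baseline library sampled from a position-specific scoring matrix, with some repeated check sequences; Rand: our label for a block that the file lists under HC and that is probably the random mutants of the ten best first-round binders; En: ensemble of fine-tuned language models; GP: Gaussian process model; GPLM: also part of the Gaussian process libraries; HC: hill climbing; Gen: genetic algorithm; Gibbs: Gibbs sampling; a sequence that several methods proposed may carry one label only). Affinity was read by AlphaSeq, a pooled yeast mating assay with surface-displayed partners. Mating (16 h, 30 °C) was followed by selection of diploids and sequencing of their barcodes. The ratio of observed to expected reads was calibrated, replicate by replicate, on BCL2-family standards whose Kd was known from biolayer interferometry. The assay was run in six technical replicates.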

The variants keep the light chain, the linker and the frameworks of Ab-14 (scFv order VH, a 15-residue (Gly4Ser)3 linker, VL).
VH: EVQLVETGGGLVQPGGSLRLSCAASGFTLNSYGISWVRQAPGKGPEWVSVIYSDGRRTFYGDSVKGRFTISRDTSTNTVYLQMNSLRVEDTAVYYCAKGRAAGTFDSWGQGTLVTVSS
VL: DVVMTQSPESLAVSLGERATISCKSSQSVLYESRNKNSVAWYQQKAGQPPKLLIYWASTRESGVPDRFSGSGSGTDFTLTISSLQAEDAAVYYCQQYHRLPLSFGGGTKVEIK

Variants are written as CDR1, CDR2 and CDR3 of the heavy chain (limits as in the source). Parent: GFTLNSYGIS, VIYSDGRRTFYGDSVK, GRAAGTFDS.
Kd is apparent (estimated from mating counts) and averaged on the log scale over replicates with a signal. Smaller is tighter.
Where no diploid with the target was found in any replicate, the entry reads "nd": below detection, most likely a poor binder, though not proof of it.
Three control strains display no target. For all heavy chain designs, 1% of the pairings with them gave a signal, with a median of 120 nM and one signal in twenty below 7.0 nM, so weak values seen in few replicates may be background.

CDR-H1	CDR-H2	CDR-H3	group	Kd (apparent)	seen in
GFTLNEYGIS	VIYSDGRRTFYGDSVK	GRTAGTFDI	GPLM_Gen	13 nM	5/6
GFSLNSYGIS	VIYSDGRRTFYDDSVK	GMKAGTFDS	GP_HC	16 nM	6/6
GFTLNEYGIS	VIYSDGRRYFYGDSVK	GRAAVTFSQ	Rand	190 nM	1/6
GDSLNEYGIS	VIYADGTRSVYTDKVK	GHAGGNFMS	En_Gibbs	nd	0/6
GFTLEKYGIS	VIYADGRRTFYGDSVK	GRAAGTFIS	GP_HC	73 nM	1/6
GFDLNSYGIS	VIYSDGRRTFYTDSVK	GRQAGTFDS	Ctrl+GP_Gen	2.1 nM	12/12
GFELNMYGIS	VIYSDGMRTFYGDSVK	GRTAGTFDS	GP_Gen	90 nM	6/6
GFHLNSYGIS	VIYSDGRRTFYDDSVK	GQEAGTFDS	GP_HC	3.8 nM	5/6
KFSLNSYGIS	VIYSDGRRTFYADSVK	GRAAGTFDS	GPLM_Gen	33 nM	4/6
GKTLNSYGIS	VIYSDGKRTFYADDVK	GRTAGTFDS	GP_Gibbs	7.0 nM	6/6
GFTLNSYSIS	VIYSDGRRTFYSDSVK	GYWGGTFDT	Ctrl	nd	0/6
GFCLNSYGIS	VIYSDGRRTFYSDSVK	GRTAGTFDS	GP_HC	81 nM	5/6
GFDLNEYGIS	VIYADGSRTAYADNVK	GEVAGTFDL	En_Gen	1.9 nM	6/6
GFTLNSYGIS	VIYSDGRRTFYGDSVK	GPTAGTFDS	Ctrl	nd	0/6
GFDIQEYGIS	VIYADGRRKAYHQSVK	GAGDITAVV	En_Gibbs	nd	0/6
GFDLDEYGIS	VIYADGKRTFYADSVK	GTLAGTFDA	En_HC	260 pM	6/6
GFSLNSYGIS	VIYSDGRRTFYADNVK	GRNAGTFDS	GPLM_Gen	1.1 nM	6/6
GDNLNSYGIS	VIYSDHRRTFYGDSVK	GGAAGMFDS	Ctrl	nd	0/6
GFTLNEYGIS	VIYSDGRRTWYTDSVK	GRTAGTFDS	GPLM_HC	900 pM	6/6
GFELNSYGIS	VIYSDGRRTFYGDSVK	GGQAGTFDT	GP_Gibbs	8.5 nM	6/6
GFTLNSYGIS	VIYSDGRRTFYGDSVK	GPIAGTFDS	Ctrl	38 nM	6/6
GFDLDEYGIS	VIYADGSRTAYADSVK	GNTAGTFDL	En_Gen	300 pM	6/6
GADLNEYGIS	VIYADGMRSALINSVK	GTLSGTFIA	En_Gibbs	nd	0/6
GFDLDEYGIS	VIYADGMRTAYADSVK	GENAGTFVV	En_Gen	87 nM	1/6
GFDLNEYGIS	VIYADGMRTFYADSVK	GEVAGTFDN	En_HC	320 pM	6/6
GFNLNEYGIS	VIYADGRRTFYSDSVK	GTNGGTFDV	En_HC	790 pM	6/6
GFDLNEYGIS	VIYADGMRTQYIDSVK	GNAAGTFDA	En_HC	1.9 nM	6/6
GFTLNSYGIS	VIYADGRRTFYGDSVK	GRAAGTFKM	GPLM_HC	1.5 nM	6/6
GFTLNSYGIS	VIYSDGRRTFYGDSVK	GGAAGTFDS	Ctrl	38 nM	2/6
GFDLDEYGIS	VIYADGSRTAYADSVK	GENAGTFDI	En_Gen	750 pM	6/6
GFELNSYGIS	VIYADGRRTFYGDSVK	GNAAGTFDT	GP_Gen	160 pM	6/6
GFTLNKYGIS	VIYADGRRTFYGDSVK	GRAAGTFDS	Ctrl	3.2 nM	6/6
GFDLDEYGIS	VIYADGVRTAYADSVK	GTNAGTFDL	En_Gen	290 pM	6/6
GFSLDEQGIS	VIYADGIRQSYAQKVK	GQYGGDFIE	En_Gibbs	nd	0/6
GFSLNQYGIS	VIYSDGRRTFYGDSVK	GQAAGTFDV	GP_Gibbs	1.3 nM	6/6
GFDLNEYGIS	VIYADGRRKFYADKVK	GETAGTFNV	En_HC	520 pM	6/6
GFNLNSYGIS	VIYSDGLRTFYLDSVK	GRAAGTFDS	Ctrl	55 nM	6/6
GFTLNQYGIS	VIYSDGRRTFYADSVK	GRQAGTFDS	GPLM_HC	550 pM	6/6
GFTLNQYGIS	VIYSDGRRTFYSDSVK	WRAAGFFDS	Rand	410 nM	1/6
GFGLNDYGIS	VIYSDGRRTFYIDSVK	GNAAGTFDS	GPLM_HC	nd	0/6
GFSLNSYGIS	VIYSDGRRTFYGDSVK	GKAAGTFDW	GPLM_Gen	nd	0/6
GFGLNSYGIS	VIYADGRRTFYGDSVK	GRTAGTFDS	GP_Gen	1.2 nM	6/6
GFTLNQYGIS	VEYSDGRRTFYSDSVK	GRAAGFFDL	Rand	6.0 nM	6/6
GFDLDEYGIS	VIYADGSRTVYADSVK	GEVAGTFDV	En_Gen	450 pM	6/6
GFDLNEYGIS	VIYADGVRQAYADSVK	GENAGTFDV	En_Gen	550 pM	6/6
TFTLNSYGIS	VIYSDGRRTFYGDSVK	GRNAGTFDS	Ctrl	nd	0/6
GFDLDEYGIS	VIYADGMRTAYSDNVK	GNVAGTFDL	En_Gen	690 pM	6/6
GFELNSYGIS	VIYSDGRRTFYGDSVK	GEAAGTFDL	GP_Gen	17 nM	5/6
GFDLNEYGIS	VIYADGLRTAYADSVK	GENAGTFDV	En_Gen	1.9 nM	6/6
GFTLNSYGIS	VIYSDGRRTFYTDSVS	GRLAGTFDL	Ctrl	35 nM	3/6
GFDLDEYGIS	VIYADGSRTAYADSVK	GQVAGTFDV	En_Gen	230 pM	6/6
GFTLNEYGIS	VIYSDGRRTFYTDIVK	GRFAGTADS	Rand	9.1 nM	2/6
GFDLDEYGIS	VIYADGMRTAYADSVK	GNVAGTFDL	En_Gen	5.7 nM	6/6
GEDLDEYGIS	VIYADGMRQYYANNVK	GDINDVDDL	En_Gibbs	nd	0/6
GFTLNSYGIS	VIYSDGRRTFYGDSVK	GRATGTVDS	Ctrl	nd	0/6
GFDLNSYGIS	VIYSDGRRTFYGDSVK	GRTAGAFNS	GPLM_HC	2.4 µM	1/6
GFTLNDYGIS	VIYSDGRRTFYDDSVK	GRAAGTFTS	GP_HC	nd	0/6
GFSLNWYGIS	VIYSDGRRTMYIDSVK	GRAAGTFDS	GP_HC	nd	0/6
GFDLNSYGIS	VIYSDGRRTFYADSVK	GRAAGIFDS	GPLM_Gen	nd	0/6
GFTLNMYGIS	VIYSDGRRTFYSDSVK	GRLAGTFDT	GP_HC	880 pM	2/6
GFELNSYGIS	VIYSDGRRTFYVDSVK	GKEAGTFDS	GP_Gibbs	3.8 nM	6/6
GFDLNEYGIS	VIYADGMRTAYSDSVK	GNHAGTFDI	En_Gen	200 pM	6/6
GFTLNSYGIH	VIYSDGRRTFYGDSVK	GRAEGEFDS	Ctrl	nd	0/6
GFSLNSYGIS	VIYSDGRRTFYLDSVK	GKTAGTFDS	GP_Gibbs	13 nM	3/6
GTHLNKYGIS	VIYSDGRRTAYSDSVK	GRAADTFDS	Ctrl	10 µM	1/6
GFTLNEYGIS	VIYSDGRRTFYGDAVK	GQAAGTFDK	GPLM_Gen	6.5 nM	4/6
GFGLNSYGIS	VIYSDGRRTFYGDSVK	GRTAGTFDT	GP_Gibbs	11 nM	6/6
GFNLDEYGIS	VIYADGRRTFYSDNVK	GEQAGTFDI	En_HC	1.6 nM	6/6
GFDLNEYGIS	VIYADGQRKAYADSVK	GNQAGTFDV	En_Gen	190 pM	6/6
GFDLNEYGIS	VIYADGVRTAYADSVK	GSNAGTFDT	En_Gen	620 pM	6/6
GFDLEDYGIS	VIYADGRRTAYADSVK	GNVAGTFDL	En_Gen	600 pM	6/6
GFWLNEYGIS	VIYSDGRRTFYGDSVK	GRQAGTFDS	GPLM_Gibbs	nd	0/6
GFDLNSYGIS	VIYSDGRRTFYGDSVK	GKTAGTFDS	GPLM_Gen	610 pM	6/6
GFDLDEYGIS	VIYADGMRTAYADNVK	GNTAGTFDV	En_Gen	210 pM	6/6

8 of these entries, quoted again:

| CDR-H1 | CDR-H2 | CDR-H3 | group | Kd (apparent) | seen in |
|---|---|---|---|---|---|
| GFTLNQYGIS | VIYSDGRRTFYSDSVK | WRAAGFFDS | Rand | 410 nM | 1/6 |
| GFTLNQYGIS | VEYSDGRRTFYSDSVK | GRAAGFFDL | Rand | 6.0 nM | 6/6 |
| GFNLDEYGIS | VIYADGRRTFYSDNVK | GEQAGTFDI | En_HC | 1.6 nM | 6/6 |
| GFGLNSYGIS | VIYADGRRTFYGDSVK | GRTAGTFDS | GP_Gen | 1.2 nM | 6/6 |
| GFSLNSYGIS | VIYSDGRRTFYADNVK | GRNAGTFDS | GPLM_Gen | 1.1 nM | 6/6 |
| GFTLNSYGIS | VIYSDGRRTFYGDSVK | GRATGTVDS | Ctrl | nd | 0/6 |
| GFTLNEYGIS | VIYSDGRRTFYTDIVK | GRFAGTADS | Rand | 9.1 nM | 2/6 |
| GFDLEDYGIS | VIYADGRRTAYADSVK | GNVAGTFDL | En_Gen | 600 pM | 6/6 |

A sequence that the file lists under several names has all its replicates pooled.
The range of this assay differs from that of the first round, and the authors advise against merging the two.
In the paper, a design with two or fewer of six values counts as a poor binder.